Results reported in article PMC1525162 (BMC Pharmacology, 2006).

Assays:
[1] = system: HEK293T-RAMP1 cells without CLR; test: cAMP generation, non-transfected or empty-vector HEK293T-RAMP1 cells; format: cell-based; settings: 10 nM CGRP, 30 min, 37°C, data not shown
[2] = system: cerebral and coronary vessels; settings: cited from earlier work
Text: Conversely, vasodilatation by CGRP released in the peripheral vasculature might be of considerable importance to patients suffering from hypertension and/or heart di ...

[3] = system: wild type and L24A, L34A, L24A,L34A CLR-RAMP1 (HEK293T-RAMP1 cells); test: cAMP generation, wild type and leucine mutant CLRs compared; settings: L24A,L34A vs wild type CLR

In the case of `CC(C)C[C@H](NC(=O)CNC(=O)[C@H](C)NC(=O)[C@H](CC(C)C)NC(=O)[C@H](CCCNC(=N)N)NC(=O)[C@H](Cc1c[nH]cn1)NC(=O)[C@@H](NC(=O)[C@@H](NC(=O)[C@@H]1CSSC[C@H](NC(=O)[C@H](C)N)C(=O)N[C@@H](CC(=O)O)C(=O)N[C@@H]([C@@H](C)O)C(=O)N[C@@H](C)C(=O)N[C@@H]([C@@H](C)O)C(=O)N1)C(C)C)[C@@H](C)O)C(=O)N[C@@H](CC(C)C)C(=O)N[C@@H](CO)C(=O)N[C@@H](CCCNC(=N)N)C(=O)N[C@@H](CO)C(=O)NCC(=O)NCC(=O)N[C@H](C(=O)N[C@H](C(=O)N[C@@H](CCCCN)C(=O)N[C@@H](CC(N)=O)C(=O)N[C@@H](CC(N)=O)C(=O)N[C@@H](Cc1ccccc1)C(=O)N[C@H](C(=O)N1CCC[C@H]1C(=O)N[C@H](C(=O)N[C@@H](CC(N)=O)C(=O)N[C@H](C(=O)NCC(=O)N[C@@H](CO)C(=O)N[C@@H](CCCCN)C(=O)N[C@@H](C)C(=O)N[C@@H](Cc1ccccc1)C(N)=O)C(C)C)[C@@H](C)O)C(C)C)C(C)C)C(C)C` [CGRP, Calcitonin gene-related peptide], the “cAMP production without CLR” value [1] is given as “no production of cAMP”, the “vasodilation” value [2] is given as “potent, efficacious and long-lasting dilation” and the “cAMP potency at leucine mutants compared with wild type” value [3] is given as “not significantly different; also recorded: no different”.

Entries after “also recorded” stand apart in the source; their conditions may differ.
